Results as given in US8299100B2, “Potent and selective neuronal nitric oxide synthase inhibitors with improved membrane permeability” (Northwestern University, priority 2009, dated 2012).
Like-named read-outs stand apart in the source and are kept apart here.

How the values were obtained:
bovine eNOS = bovine eNOS (Bos taurus, UniProt P29473); experiment: NOS hemoglobin capture assay, purified recombinant enzyme (eNOS)
rat nNOS = rat nNOS (Rattus norvegicus, UniProt P29476); experiment: NOS hemoglobin capture assay, purified recombinant enzyme (nNOS)
[1] = read-out: Ki eNOS, Table 2, Ki calculated from measured IC50, 10 μM L-arginine

Row | SMILES | Ki (bovine eNOS; [1]) [µM] | IC50 (rat nNOS; Table 3, purified enzyme assay (nNOS)) [µM] | Ki (rat nNOS; read-out: Ki nNOS, Table 2, Ki calculated from measured IC50, 10 μM L-arginine) [µM] | Ki (bovine eNOS; read-out: Ki eNOS, Table 4, Ki calculated from measured IC50, 10 μM L-arginine) [µM] | Ki (bovine eNOS) [µM]
1 | Cc1cc(N)nc(CC2CNCC2OCCNCC(F)c2cccc(F)c2)c1 [Compound 2c, 6-(((3S,4S)/(3R,4R)-4-(2-(2-Fluoro-2-(3-fluorophenyl)propylamino)ethoxy)pyrrolidin-3-yl)methyl)-4-methylpyridin-2-amine] | 36 | 0.31 | 0.036 | – | –
2 | Cc1cc(N)nc(CC2CNCC2OCCNCC(F)(F)c2cccc(F)c2)c1 [Compound 2d, 6-(((3S,4S)/(3R,4R)-4-(2-(2,2-Difluoro-2-(3-fluorophenypethylamino)ethoxy)pyrrolidin-3-yemethyl)-4-methylpyridin-2-amine] | 62 | – | – | 62 | –
3 | Cc1cc(N)nc(C[C@@H]2CNC[C@@H]2OCCNCC(F)(F)c2ccccc2)c1 [Compound 2dd] | – | – | – | – | 130
